ChEMBL document CHEMBL4842359, “1,3-Diarylpyrazolyl-acylsulfonamides as Potent Anti-tuberculosis Agents Targeting Cell Wall Biosynthesis in Mycobacterium tuberculosis” (J Med Chem, 2021)
Converted amounts (≈) assume the structure as drawn.

Test: physchem
Conditions: aqueous phosphate buffer, pH 7.4

## O=C1NC(=O)C(Cc2cn(-c3ccc(Cl)cc3)nc2-c2ccc(Cl)cc2)C(=O)N1
  solubility thermodynamic: 200 µM (≈ 85.9 µg/mL)
